Measured values reported in PubChem BioAssay (Tox21).
Where “and” joins values, the source holds several entries; their conditions need not be identical. Equal values may be shown once. This is a selection; strong and weak results do not stand in their true shares. Results filed as inconclusive are left out. Entries that show only a call come without a potency. Calls of active or inactive are those of the source. Unless noted, calls follow the shape of the dose curve; as a rule, active = well fitted curve in the direction sought with a large enough effect in the repeat runs; inconclusive = weak or mixed curves; inactive = no such curve, though single readings can be large; an effect the other way counts as inactive or inconclusive.

Amino acid sequences for entries named in this document (tags omitted). A change or cut given only in a name is not applied to a line headed by its entry.
UniProt Q92731, whole entry, looked up: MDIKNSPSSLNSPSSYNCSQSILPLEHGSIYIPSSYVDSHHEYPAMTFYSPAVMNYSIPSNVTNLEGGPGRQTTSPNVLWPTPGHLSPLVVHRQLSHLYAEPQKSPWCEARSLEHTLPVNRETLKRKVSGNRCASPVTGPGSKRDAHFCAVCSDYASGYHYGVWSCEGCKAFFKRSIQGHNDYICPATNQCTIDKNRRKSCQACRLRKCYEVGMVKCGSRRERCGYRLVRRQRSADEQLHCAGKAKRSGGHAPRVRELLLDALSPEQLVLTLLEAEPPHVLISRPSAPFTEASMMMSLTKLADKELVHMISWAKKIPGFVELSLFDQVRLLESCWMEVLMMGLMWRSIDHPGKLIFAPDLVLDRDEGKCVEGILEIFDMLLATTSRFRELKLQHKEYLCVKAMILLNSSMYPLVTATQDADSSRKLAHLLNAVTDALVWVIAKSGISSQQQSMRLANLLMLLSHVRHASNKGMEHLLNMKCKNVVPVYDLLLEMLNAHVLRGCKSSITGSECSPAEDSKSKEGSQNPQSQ
UniProt P03372, whole entry, looked up: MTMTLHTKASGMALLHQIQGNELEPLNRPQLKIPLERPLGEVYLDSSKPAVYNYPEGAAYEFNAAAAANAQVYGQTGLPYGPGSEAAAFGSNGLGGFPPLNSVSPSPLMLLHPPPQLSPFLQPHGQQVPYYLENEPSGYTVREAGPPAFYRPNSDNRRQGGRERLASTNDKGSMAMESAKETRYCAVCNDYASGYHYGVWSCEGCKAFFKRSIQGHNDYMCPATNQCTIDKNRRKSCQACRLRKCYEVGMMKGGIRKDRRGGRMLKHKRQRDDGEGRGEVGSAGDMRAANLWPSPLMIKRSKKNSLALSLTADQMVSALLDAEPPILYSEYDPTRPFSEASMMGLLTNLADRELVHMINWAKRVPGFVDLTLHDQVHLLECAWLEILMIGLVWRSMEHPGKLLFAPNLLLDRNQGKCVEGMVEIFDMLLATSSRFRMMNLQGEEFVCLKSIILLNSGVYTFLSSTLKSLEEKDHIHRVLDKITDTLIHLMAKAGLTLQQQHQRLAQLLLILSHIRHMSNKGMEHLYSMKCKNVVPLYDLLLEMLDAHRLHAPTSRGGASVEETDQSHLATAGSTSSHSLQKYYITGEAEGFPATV
UniProt P10275: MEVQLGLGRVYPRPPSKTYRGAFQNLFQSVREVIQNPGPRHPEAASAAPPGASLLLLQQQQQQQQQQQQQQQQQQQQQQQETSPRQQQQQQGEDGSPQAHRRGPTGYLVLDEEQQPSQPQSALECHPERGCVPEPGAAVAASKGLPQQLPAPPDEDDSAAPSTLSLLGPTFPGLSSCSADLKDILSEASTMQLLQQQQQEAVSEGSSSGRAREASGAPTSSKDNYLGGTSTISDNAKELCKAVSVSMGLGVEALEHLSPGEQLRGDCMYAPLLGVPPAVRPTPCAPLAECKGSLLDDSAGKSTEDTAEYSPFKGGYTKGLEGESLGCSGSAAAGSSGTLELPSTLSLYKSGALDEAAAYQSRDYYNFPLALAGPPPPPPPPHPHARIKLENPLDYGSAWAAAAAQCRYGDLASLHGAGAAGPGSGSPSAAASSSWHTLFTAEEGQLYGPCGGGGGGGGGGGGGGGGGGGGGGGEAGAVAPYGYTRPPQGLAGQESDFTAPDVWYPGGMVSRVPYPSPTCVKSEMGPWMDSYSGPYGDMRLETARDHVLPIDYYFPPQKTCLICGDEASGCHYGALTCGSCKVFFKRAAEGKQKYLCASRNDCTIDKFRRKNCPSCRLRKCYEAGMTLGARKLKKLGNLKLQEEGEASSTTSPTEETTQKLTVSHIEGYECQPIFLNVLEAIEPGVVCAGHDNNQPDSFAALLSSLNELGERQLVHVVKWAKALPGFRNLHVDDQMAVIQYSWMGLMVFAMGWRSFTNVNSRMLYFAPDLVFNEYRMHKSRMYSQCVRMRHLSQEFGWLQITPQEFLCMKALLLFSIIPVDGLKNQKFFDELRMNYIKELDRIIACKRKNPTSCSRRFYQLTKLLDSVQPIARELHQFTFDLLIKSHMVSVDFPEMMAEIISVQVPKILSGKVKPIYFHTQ

Tests used:
[1] = A CellTox Green Cytotoxicity Assay to monitor cytotoxicity in HEK293 cells - 0 hour (AID 1224869); details: CellTox Green fluorescence; also: nearly all actives have a fitted effect of over 50% in size
Outline: (§1)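 Cells (HEK293, 600/well) and dye reagent are dispensed together. After 5 h at 37 C, 23 nL compound is pinned in. Plates stay at 37 C for 40 h with fluorescence read at 0h, 8h, 16h, 24h, 32h and 40h.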

[2] = qHTS RealTime-Glo MT Cell Viability Assay in HepG2 cells - 40 hour (AID 1224870); also: nearly all actives have a fitted effect of over 50% in size; also: potency is read from the fitted curve at half-maximal effect
Outline: (§2)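 Real-time viability: cells seeded at 600 per well together with NanoLuc and cell-permeant prosubstrate, compounds added after 5 h incubation. Luminescence tracked at 0, 8, 16, 24, 32 and 40 h of exposure.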

[3] = A CellTox Green Cytotoxicity Assay to monitor cytotoxicity in HEK293 cells - 40 hour (AID 1224871); also: nearly all actives have a fitted effect of over 45% in size
Outline: as §1

[4] = qHTS RealTime-Glo MT Cell Viability Assay in HEK293 cells - 16 hour (AID 1224872); also: top concentration of the series differs between compounds; nearly all actives have a fitted effect of over 50% in size
Outline: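 Cells + reagent dispensed (600 cells/well, HEK293) → 5 h at 37 C/5% CO2 → 23 nL compound in DMSO pinned → 40 h at 37 C → luminescence read at 0, 8, 16, 24, 32, 40 h.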

[5] = qHTS RealTime-Glo MT Cell Viability Assay in HepG2 cells - 8 hour (AID 1224873); also: nearly all actives have a fitted effect of over 55% in size
Outline: as §2

[6] = qHTS RealTime-Glo MT Cell Viability Assay in HEK293 cells - 40 hour (AID 1224874); details: RealTime-Glo luminescence; max response: stronger effect = lower value; also: nearly all actives have a fitted effect of over 50% in size
Outline: (§3)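 Real-time viability in HEK293: signal arises when living cells convert a prosubstrate for NanoLuc in the medium, so luminescence tracks viable cell number. Compound (23 nL, DMSO) added 5 h post-seeding; kinetic reads at 0–40 h, 37 C.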

[7] = A CellTox Green Cytotoxicity Assay to monitor cytotoxicity in HEK293 cells - 32 hour (AID 1224881); also: nearly all actives have a fitted effect of over 40% in size
Outline: as §1

[8] = qHTS RealTime-Glo MT Cell Viability Assay in HEK293 cells - 8 hour (AID 1224887); also: nearly all actives have a fitted effect of over 50% in size; also: potency is read from the fitted curve at half-maximal effect
Outline: as §3

[9] = A CellTox Green Cytotoxicity Assay to monitor cytotoxicity in HEK293 cells - 16 hour (AID 1224888); also: nearly all actives have a fitted effect of over 35% in size; also: potency is read from the fitted curve at half-maximal effect
Outline: as §1

[10] = A CellTox Green Cytotoxicity Assay to monitor cytotoxicity in HepG2 cells - 8 hour (AID 1224890); also: nearly all actives have a fitted effect of over 45% in size
Outline: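 Cells and non-lytic dye reagent are dispensed together (600 HepG2 cells/well) and incubated 5 h before DMSO compound transfer. Kinetic fluorescence is then recorded in the same wells during 40 h at 37 C.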

[11] = qHTS assay to identify small molecule antagonists of the estrogen receptor alpha (ER-alpha) signaling pathway using the BG1 cell line in the presence of 0.1 nM 17-beta-estradiol - cell viability counter screen (AID 1259241); also: nearly all actives have a fitted effect of over 40% in size
Outline: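 Viability in VM7Luc4E2 cells after 22 hr compound exposure under 0.1 nM 17beta-estradiol stimulation, by CellTiter-Fluor.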

[12] = qHTS assay to identify small molecule antagonists of the sonic hedgehog signaling (Shh) pathway - cell viability counter screen (AID 1259367); also: nearly all actives have a fitted effect of over 55% in size
Outline: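 CellTiter-Fluor signal in conditioned medium-stimulated 3T3 Gli1-Luc cells, 23 hr compound exposure, 37C.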

[13] = qHTS assay to identify small molecule agonists of the sonic hedgehog signaling (Shh) pathway (AID 1259368; calls by dose curve;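 also: NIH/3T3-derived 3T3Gli1-Luc cells carrying a stable Gli1-driven firefly luciferase reporter; nearly all actives have a fitted effect of over 15% in size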); details: NIH/3T3 Gli1-Luc reporter, luciferase, 24 h, stronger effect = higher value
Outline: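 Cells of a mouse NIH/3T3 clone stably expressing luciferase under the Gli1 transcriptional response element are exposed to test chemicals for 24 hr at 37 C. Pathway activation is detected as a rise in luminescence.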

[14] = qHTS assay to identify small molecule antagonists of the sonic hedgehog signaling (Shh) pathway (AID 1259369; calls by dose curve; also: nearly all actives have a fitted effect of over 45% in size)
Outline: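 Cells are plated and held 4hr at 37 C, compounds (DMSO) are pinned in, conditioned medium is added to stimulate the pathway, and after 24hr luciferase reagent is added for 30min before luminescence is read.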

[15] = target: Estrogen receptor beta (Homo sapiens) (UniProt Q92731); assay: qHTS assay to identify small molecule agonists of the estrogen receptor beta (ER-beta) signaling pathway (AID 1259377; active = well fitted activation curve with a large enough effect in the signal ratio in the repeat runs, not every such curve was filed as active; the % refers to the signal ratio); details: ER-beta-UAS-bla HEK293T, beta-lactamase FRET ratio, 16 h; at 92.4 µM (top of the series) unless noted
[16] = qHTS assay to identify small molecule agonists of the androgen receptor (AR) signaling pathway in the presence of an antagonist - cell viability counter screen (AID 1259379);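 also: MDA-kb2 human breast cancer cells carrying an MMTV luciferase reporter; nearly all actives have a fitted effect of over 25% in size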
Outline: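 Cytotoxicity is assessed by CellTiter-Fluor in MDA-kb2 cells carrying an MMTV-driven luciferase reporter. Cells receive 3.0uM nilutamide plus compounds at 15 concentrations and incubate 16 hr at 37C without CO2 before fluorescence reading.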

[17] = qHTS assay to identify small molecule antagonists of the estrogen related receptor (ERR) signaling pathway from Tox21 library (AID 1224848); also: nearly all actives have a fitted effect of over 50% in size
Outline: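 ERR cell line, 2,000 cells/well. 6 h settle, then compound (DMSO) added; 18 h at 37 C; ONE-Glo luminescence after 30 min RT.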

[18] = target: Estrogen receptor (Homo sapiens) (UniProt P03372); assay: qHTS assay to identify small molecule antagonists of the estrogen receptor alpha (ER-alpha) signaling pathway using the BG1 cell line in the presence of 0.1 nM 17-beta-estradiol (AID 1259244); details: VM7Luc4E2 (BG1) ERE-luciferase, antagonist mode, 0.1 nM E2, 22 h; at 92.4 µM (top of the series) unless noted; also: nearly all actives have a fitted effect of over 50% in size
[19] = qHTS assay to identify small molecule agonists of the sonic hedgehog signaling (Shh) pathway - cell viability counter screen (AID 1259366); also: nearly all actives have a fitted effect of over 50% in size
Outline: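 Stable Gli1-Luc NIH/3T3 clone, 2,000 cells/well. Compound exposure 24hr at 37C. Read-out: CellTiter-Fluor fluorescence.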

[20] = target: Androgen receptor (Homo sapiens) (UniProt P10275); assay: qHTS assay to identify small molecule antagonists of the androgen receptor (AR) signaling pathway using the MDA cell line in the presence of 0.5 nM R1881 (AID 1259243); also: nearly all actives have a fitted effect of over 50% in size
[21] = at 76.8 µM (top of the series) unless noted
[22] = at 92.4 µM (top of the series) unless noted

SMILES: NC(=O)Nc1ccc([As](=O)(O)O)cc1
- cytotoxicity ([1]; at 35.3 µM (top of the series)): inactive: -1.3%
- cytotoxicity ([1]; at 76.8 µM (top of the series)): inactive: 1.78%
- Potency [2]: inactive
- Potency [3]: inactive
- Potency [4]: inactive
- Potency [5]: inactive
- max response [6]: inactive: 5.29% and inactive: -0.318%
- Potency [7]: inactive
- Potency [8]: inactive
- Potency [9]: inactive
- Potency [10]: inactive
- Potency [11]: inactive
- Potency [12]: inactive
- activity change ([13]; at 42.5 µM (top of the series)): inactive: 1.72%
- activity change ([13]; at 92.4 µM (top of the series)): inactive: 0.192%
- Potency [14]: inactive
- activation [15]: inactive: 4.86% [at 42.5 µM]
- Potency [16]: inactive

SMILES: CCNC(C)Cc1ccc2c(c1)OCO2 (stereo unspecified)
- Potency [17]: inactive
- cytotoxicity [1, 21]: inactive: 0.172%
- Potency [2]: inactive
- Potency [3]: inactive
- Potency [4]: inactive
- Potency [5]: inactive
- max response [6]: inactive: -12.9%
- Potency [7]: inactive
- Potency [8]: inactive
- Potency [9]: inactive
- Potency [10]: inactive
- Potency [11]: inactive
- activity change, negative = inhibition [18]: inactive: 4.52%
- Potency [19]: inactive
- Potency [12]: inactive
- activity change [13, 22]: inactive: 0.411%
- Potency [14]: inactive
- activation [15]: inactive: -1.62%
- Potency [16]: inactive

SMILES: CCCCO[P+](=O)OCCCC
- Potency [17]: inactive
- cytotoxicity [1, 21]: inactive: -0.702% and inactive: -7.77%
- Potency [2]: inactive
- Potency [3]: inactive
- Potency [4]: inactive
- Potency [5]: inactive
- max response [6]: inactive: 2.53% and inactive: 8.49%
- Potency [7]: inactive
- Potency [8]: inactive
- Potency [9]: inactive
- Potency [10]: inactive
- Potency [11]: inactive
- Potency [20]: inactive
- activity change, negative = inhibition [18]: inactive: -0.396% and inactive: 3.65%
- Potency [19]: inactive
- Potency [12]: inactive
- activity change [13, 22]: inactive: -0.24% and inactive: -1.07%
- Potency [16]: inactive

SMILES: O=P(Cl)(Oc1ccccc1)Oc1ccccc1
- cytotoxicity [1, 21]: inactive: 4.52%
- Potency [2]: inactive
- Potency [3]: inactive
- Potency [4]: inactive
- Potency [5]: inactive
- Potency [7]: inactive
- Potency [8]: inactive
- Potency [9]: inactive
- Potency [10]: inactive
- Potency [11]: inactive
- activity change, negative = inhibition [18]: inactive: -15.7%
- Potency [19]: inactive
- Potency [12]: inactive
- activity change [13, 22]: inactive: 0.332%
- Potency [14]: inactive
- activation [15]: inactive: -0.229%
- Potency [16]: inactive

SMILES: COC(=O)Cl
- cytotoxicity [1, 21]: inactive: -1.65%
- Potency [2]: inactive
- Potency [3]: inactive
- Potency [4]: inactive
- Potency [5]: inactive
- max response [6]: inactive: -0.255%
- Potency [7]: inactive
- Potency [8]: inactive
- Potency [9]: inactive
- Potency [10]: inactive
- Potency [11]: inactive
- activity change, negative = inhibition [18]: inactive: 3.89%
- Potency [19]: inactive
- Potency [12]: inactive
- activity change [13, 22]: inactive: -1.97%
- Potency [14]: inactive
- Potency [16]: inactive

SMILES: O=C1C2CC=CCC2C(=O)N1SC(Cl)(Cl)C(Cl)Cl (stereo unspecified)
- cytotoxicity [1, 21]: inactive: 3.88% and inactive: -0.352%
- Potency [2]: active: 44 µM and active: 4.9 µM
- Potency [8]: active: 22 µM and active: 9.77 µM
- Potency [9]: active: 39.2 µM and active: 9.77 µM
- activity change [13, 22]: inactive: -8.55% and inactive: -13.4%

SMILES: CCOC(=O)Cl
- cytotoxicity [1, 21]: inactive: -1.59%
- Potency [2]: inactive
- Potency [3]: inactive
- Potency [4]: inactive
- Potency [5]: inactive
- max response [6]: inactive: 14.1%
- Potency [7]: inactive
- Potency [8]: inactive
- Potency [9]: inactive
- Potency [10]: inactive
- Potency [11]: inactive
- activity change, negative = inhibition [18]: inactive: 27.3%
- Potency [19]: inactive
- Potency [12]: inactive
- activity change [13, 22]: inactive: 2.83%
- Potency [14]: inactive
- activation [15]: inactive: -2.53%
- Potency [16]: inactive

SMILES: CCOP(=S)(CC)Sc1ccccc1 (stereo unspecified)
- Potency [17]: inactive
- cytotoxicity [1, 21]: inactive: 0.213%
- Potency [2]: inactive
- Potency [3]: inactive
- Potency [4]: inactive
- Potency [5]: inactive
- max response [6]: inactive: 1.72%
- Potency [7]: inactive
- Potency [8]: inactive
- Potency [9]: inactive
- Potency [10]: inactive
- Potency [11]: inactive
- activity change, negative = inhibition [18]: inactive: -5.81%
- Potency [19]: inactive
- Potency [12]: inactive
- activity change [13, 22]: inactive: 1.12%
- Potency [14]: inactive
- activation [15]: inactive: -2.86%
- Potency [16]: inactive
